# Test results published in PubChem BioAssay AID687020 (Broad Institute, 2013).
# Only a part is listed here, and it is no random draw. Results with a measured potency or affinity are listed apart. Active and inactive are the calls of the source. How the calls were made is not given here.
# Assay: viability loss in Vero cells – cell-based, plate reader, cherry-pick samples, cytotoxicity control, dose response (AID 687020);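 further: compounds incubated with cells for three days before luminescence read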
# Details: at 19.5 µM (top of the series)
row,Structure (SMILES),"activity change, negative = toxicity"
1,CCOC(=O)c1ccc(NP(C)(=O)Oc2ccc(Cl)cc2)cc1 (stereo unspecified),inactive: -14.3%
